BindingDB's records for doi:10.1073/pnas.92.8.3298 (Agouron Pharmaceuticals, 1995)

Molecular target: T1, Dimer of Gag-Pol polyprotein [489-587] (Human immunodeficiency virus 1, UniProt P12497)
T1 construct: 489-587
Assay: Protease Inhibition Assay
Settings: pH 5.6; 37 °C
Protocol: Protease activity was measured by continuous chromogenic assay. The chromogenic peptide His-Lys-Ala-Arg-Val-Leu- (p-NO2-Phe)-Glu-Ala-Nleu-Ser (Bachem) was used as a substrate. Reactions were followed by the decrease of absorbance at 300 nm measured by spectrophotometer. Experimental results were analyzed by the nonlinear regression analysis, using a mathematical model for tight binding inhibitors.

CC(C)(C)N(CCO)C(=O)c1ccccc1CCC(O)Cc1ccccc1C(=O)N(CCO)C(C)(C)C (stereo unspecified) [N-tert-butyl-2-(4-{2-[tert-butyl(2-hydroxyethyl)carbamoyl]phenyl}-3-hydroxybutyl)-N-(2-hydroxyethyl)benzamide]
Ki: 1100 nM
